Assay results taken from patent publication US12168646B2, “Aryl hydrocarbon receptor agonists and uses thereof” (NEXYS THERAPEUTICS, INC., priority 2022, dated 2024).

Target: T1, AhR (Homo sapiens, UniProt P35869)
T1 construct: HT29-Lucia AhR cells were purchased from Invivogen (cat #ht21-ahr); host or cells: HT29-Lucia AhR cells
T1 sequence (P35869 11-848): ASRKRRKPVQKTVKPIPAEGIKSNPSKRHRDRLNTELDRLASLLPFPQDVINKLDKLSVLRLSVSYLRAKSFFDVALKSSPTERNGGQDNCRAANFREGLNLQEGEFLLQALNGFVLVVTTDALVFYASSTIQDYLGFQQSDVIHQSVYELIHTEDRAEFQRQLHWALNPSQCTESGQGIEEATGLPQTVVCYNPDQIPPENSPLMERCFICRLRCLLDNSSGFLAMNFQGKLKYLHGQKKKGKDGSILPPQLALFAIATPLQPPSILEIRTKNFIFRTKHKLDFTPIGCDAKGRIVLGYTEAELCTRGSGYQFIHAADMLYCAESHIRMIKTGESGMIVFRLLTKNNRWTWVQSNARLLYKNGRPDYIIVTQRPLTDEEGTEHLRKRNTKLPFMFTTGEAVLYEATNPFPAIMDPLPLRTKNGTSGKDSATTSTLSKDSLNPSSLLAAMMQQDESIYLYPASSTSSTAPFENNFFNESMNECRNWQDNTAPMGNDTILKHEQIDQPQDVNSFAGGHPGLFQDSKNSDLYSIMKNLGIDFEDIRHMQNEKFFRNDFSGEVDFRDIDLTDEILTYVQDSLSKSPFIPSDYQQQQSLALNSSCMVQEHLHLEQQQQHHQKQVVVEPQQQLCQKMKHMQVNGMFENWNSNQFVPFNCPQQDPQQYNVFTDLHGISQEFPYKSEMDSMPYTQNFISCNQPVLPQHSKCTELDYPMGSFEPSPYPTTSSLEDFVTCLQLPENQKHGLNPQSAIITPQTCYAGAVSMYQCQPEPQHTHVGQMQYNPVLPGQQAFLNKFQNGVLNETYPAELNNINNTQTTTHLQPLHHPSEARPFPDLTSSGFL
Test: HT29 AhR Reporter Assay (HT29-Lucia AhR cells, QUANTI-Luc luminescence)
Assay type: cell-based
Experimental: Biological Data 1: HT29 AhR Reporter Assay HT29-Lucia AhR cells were purchased from Invivogen (cat #ht21-ahr). […] The cell suspension was removed from growth medium and rinsed gently with pre-warmed PBS (10 mL). Pre-warmed Trypsin (1 mL) was added, and cells were held at 30° C. for about 5 min and then detached by pipette. The dissociated cell clumps were gently pipetted up and down. The cells were resuspended in pre-warmed detection medium (DMEM, 10% FBS (30 min at 56° C.), 100 U/ml penicillin, 100 μg/ml streptomycin, and test article or vehicle) and counted. A cell suspension of ˜500,000 cells/mL in Detection medium was prepared. […] Samples (20 μL/well) were pipetted into a 96-well white (opaque), and QUANTI-Luc™ (50 μL/well) was added. The plate was gently tapped and then read in a luminometer (0.1 s reading time).

`Nc1cccc(-c2ccnc(Nc3ccc(C(F)(F)F)cc3)n2)c1` [Example 2, 4-(3-aminophenyl)-N-(4-(trifluoromethyl)phenyl)pyrimidin-2-amine] was tested, and the EC50 (HT29-Lucia AhR cells, 18-24 h, EC50 = concentration to reach half of maximum efficacy of reference compound VAF347) was under 14 nM and the Emax (read-out: HT29 AhR % efficacy) was 275%.
